These are literature values, as cited in US20040234600A1, “Hydromorphone therapy” (priority 1994, published 2004).

As to `CN1CC[C@]23c4c5ccc(O)c4OC2C(=O)CC[C@H]3[C@H]1C5` (some centres unmarked) [hydromorphone, 4,5-epoxy-3-hydroxy-17-methylmorphinan-6-one], the “onset of action, analgesia occurring” value (orally administered) is listed as “thirty”. In addition, under “parenterally administered”, the “analgesic action apparent (onset)” value is given as “fifteen”.
